Experiments:
Assay type in all cases: physicochemical
[1] = HPLC analysis of aqueous solution integrity; settings: 20 μM in 3% DMSO aqueous solution, after 24 h, 254 nm
Method: Ligand, complex (2), and complex (3) solutions were prepared fresh as described in the UV–vis stability assay. Prior to the injection to the column, 20 μL was taken and diluted with 180 μL of HPLC-grade acetonitrile at various time points (t = 0 and 24 h). 20 μL of this diluted sample was injected in the Zorbax Eclipse Plus C18 column (4.6 × 100 mm, 3.5 μm): flow rate, 1 mL/min; detection, UV 254 nm; flow solvent system A/B (acetonitrile/water, v/v): 70:30 and analyzed with 254 nm radiation up to 10 min.

[2] = Stability and DMSO coordination in DMSO by 1H NMR; settings: pure DMSO
Method: (a) Complex (2) solutions in DMSO (D2O) investigated by NMR spectroscopy: Trying to investigate if the higher concentration is responsible for the complex transformation process in DMSO, we monitored the solution of complex (2) at 0.5 and 1 mM by ^1H NMR spectroscopy (Figure a). We could clearly see that complex (2) is only detected pure at a concentration of 0.5 mM. As the concentration of complex (2) increases, the molar fraction of a new coordinated species (complex (3)) gradually rises from 0% (Figure a(3)) at 0.5 mM to 8% at 3 mM (Figure a(1)).
NMR spectra were recorded at room temperature, using a two-channel 300 MHz Bruker Avance III-HD Nanobay spectrometer equipped with a 5 mm BBO 1H/X probe and Z gradients, located at the Interdepartmental Investigation Service (SIdI). […] Mass spectra were recorded using FAB (fast atom bombardment) in a Waters VG AutoSpec mass spectrometry unit and using MALDI (matrix-assisted laser desorption/ionization) with a Bruker Ultraflex III (MALDI-TOF/TOF) mass spectrometry unit, both located at SIdI. Infrared (IR) spectra were recorded using a PerkinElmer Model 283 spectrometer with an attenuated total reflectance (ATR) MIRacle Single Reflection Horizontal accessory and equipped with CsI optical windows for spectra between 600 and 200 cm^–1 in Nujol mull preparations. […]

[3] = Stability in physiological buffers (Tris, phosphate, HEPES) by UV-vis; settings: pH 7.4, 0.1 M chloride
Method: The reaction of the metal complexes (2) and (3) with buffer components was followed in an array of DMSO percentages, from 1% to 60% (v/v) DMSO/H2O (pH 7.4) medium. The samples were prepared by dilution of the stock solution of the respective complex in DMSO (5 mM) with 5 mM Tris 1% (v/v) DMSO/H2O or 5 mM phosphate buffers 60% (v/v) DMSO/H2O (pH 7.40 in both cases), reaching a final concentration of 10^–6 to 10^–4 M. The UV–vis spectra of the final samples were followed over time at 37 °C for up to 24 h.

[4] = n-Octanol/water and n-octanol/Tris buffer shake-flask partitioning
Method: The distribution coefficient values (D 7.4) of the compounds were determined by the traditional shake-flask method in n-octanol/buffered aqueous solution at pH 7.40 for 5 mM Tris HCl with 0.1 M KCl and at pH 7.4 at 25.0 ± 0.2 °C. The ligand and complexes were dissolved in n-octanol (presaturated by the aqueous buffer) because of the very low aqueous solubility. The aqueous buffer solution and n-octanol ratio was 1:1 due to the expected high lipophilicity of the compounds. First, samples were mixed with vertical rotation (∼20 rpm) for 3 h, and then the two phases were separated by centrifugation at 3000 rpm (∼1000g) for 3 min. After separation, UV–vis spectra of the compounds were recorded in both phases. Spectra of the n-octanol phases were compared to those of the original n-octanol stock solutions.
The distribution coefficient values were also determined using unbuffered water and octanol (also presaturated) with a ratio of 1:1.

Solubility observations = settings: as observed; aqueous solution for HL

Substance	integral of the HPLC signal of intact complex [1]	time without changes [2]	behaviour in HEPES buffer ([3]; HEPES, 60% DMSO)	behaviour in phosphate buffer ([3]; phosphate, 3% (v/v) DMSO)	log D o/t ([4]; n-octanol/5 mM Tris HCl with 0.1 M KCl, pH 7.40, 25.0 °C)	log D o/w ([4]; n-octanol/pure (unbuffered) water, 1:1)	solubility (Solubility observations)
Chlorido(dimethyl sulfoxide)(1H-imidazole-4-carboxaldehyde-4N-p-chlorophenylthiosemicarbazonato)palladium(II) [(3)]	only slightly diminished	more than 3 days	formed precipitation	precipitated	+1.94 ± 0.04	+1.11 ± 0.06	
Di-μ-chlorido-bis(1H-imidazole-4-carboxaldehyde-4N-p-chlorophenylthiosemicarbazonato)dipalladium(II) [(1)]							poor solubility
